Experimental data as given in patent US20180136227A1, “Treatment and Diagnosis of Hereditary Xerocytosis” (Universite d'aix Marseille, priority 2015, published 2018).

Legend:
V282M mutated KCNN4 = V282M mutated KCNN4 (Homo sapiens, UniProt O15554, V282M); assay: Whole cell patch clamp on HEK293 cells transfected with V282M KCNN4; format: cell-based; conditions: Senicapoc, normalized K+ current at 0 mV, 1 μM free calcium
WT KCNN4 = WT KCNN4 (Homo sapiens, UniProt O15554); assay: Whole cell patch clamp on HEK293 cells transfected with WT KCNN4; format: cell-based; conditions: Senicapoc, normalized K+ current at 0 mV, 1 μM free calcium
[1] = biological target: Gardos channels in control red blood cells (Homo sapiens, UniProt O15554); conditions: 10 μM TRAM-34, 5 min pre-incubation, whole-cell
control red blood cells = assay: Osmotic fragility test in hypotonic saline, control red blood cells; conditions: TRAM-34 10 μM

Compound | IC50 (V282M mutated KCNN4) | IC50 (WT KCNN4) | block of Gardos channel current [1] | decrease of the osmotic resistance (control red blood cells; 25 hours at 4° C.) | decrease of the osmotic resistance (control red blood cells; 25 hours at 37° C.)
NC(=O)C(c1ccccc1)(c1ccc(F)cc1)c1ccc(F)cc1 [Senicapoc, bis(4-fluorophenyl)phenyl acetamide] | ~10 nM | ~10 nM | – | – | –
Clc1ccccc1C(c1ccccc1)(c1ccccc1)n1cccn1 [TRAM-34, 1-[(2-Chlorophenyl)diphenylmethyl]-1H-pyrazole] | – | – | completely blocked | very slightly | more significantly
